Laboratory results published in US20020026051A1, “Dithiepino [6,5-b]pyridines, and related compositions and methods” (priority 1999, published 2002).
pIC50: −log10 of the molar value.

Amino acid sequences for entries named in this document (tags omitted). Residues count along the entry.
UniProt P15381, whole entry: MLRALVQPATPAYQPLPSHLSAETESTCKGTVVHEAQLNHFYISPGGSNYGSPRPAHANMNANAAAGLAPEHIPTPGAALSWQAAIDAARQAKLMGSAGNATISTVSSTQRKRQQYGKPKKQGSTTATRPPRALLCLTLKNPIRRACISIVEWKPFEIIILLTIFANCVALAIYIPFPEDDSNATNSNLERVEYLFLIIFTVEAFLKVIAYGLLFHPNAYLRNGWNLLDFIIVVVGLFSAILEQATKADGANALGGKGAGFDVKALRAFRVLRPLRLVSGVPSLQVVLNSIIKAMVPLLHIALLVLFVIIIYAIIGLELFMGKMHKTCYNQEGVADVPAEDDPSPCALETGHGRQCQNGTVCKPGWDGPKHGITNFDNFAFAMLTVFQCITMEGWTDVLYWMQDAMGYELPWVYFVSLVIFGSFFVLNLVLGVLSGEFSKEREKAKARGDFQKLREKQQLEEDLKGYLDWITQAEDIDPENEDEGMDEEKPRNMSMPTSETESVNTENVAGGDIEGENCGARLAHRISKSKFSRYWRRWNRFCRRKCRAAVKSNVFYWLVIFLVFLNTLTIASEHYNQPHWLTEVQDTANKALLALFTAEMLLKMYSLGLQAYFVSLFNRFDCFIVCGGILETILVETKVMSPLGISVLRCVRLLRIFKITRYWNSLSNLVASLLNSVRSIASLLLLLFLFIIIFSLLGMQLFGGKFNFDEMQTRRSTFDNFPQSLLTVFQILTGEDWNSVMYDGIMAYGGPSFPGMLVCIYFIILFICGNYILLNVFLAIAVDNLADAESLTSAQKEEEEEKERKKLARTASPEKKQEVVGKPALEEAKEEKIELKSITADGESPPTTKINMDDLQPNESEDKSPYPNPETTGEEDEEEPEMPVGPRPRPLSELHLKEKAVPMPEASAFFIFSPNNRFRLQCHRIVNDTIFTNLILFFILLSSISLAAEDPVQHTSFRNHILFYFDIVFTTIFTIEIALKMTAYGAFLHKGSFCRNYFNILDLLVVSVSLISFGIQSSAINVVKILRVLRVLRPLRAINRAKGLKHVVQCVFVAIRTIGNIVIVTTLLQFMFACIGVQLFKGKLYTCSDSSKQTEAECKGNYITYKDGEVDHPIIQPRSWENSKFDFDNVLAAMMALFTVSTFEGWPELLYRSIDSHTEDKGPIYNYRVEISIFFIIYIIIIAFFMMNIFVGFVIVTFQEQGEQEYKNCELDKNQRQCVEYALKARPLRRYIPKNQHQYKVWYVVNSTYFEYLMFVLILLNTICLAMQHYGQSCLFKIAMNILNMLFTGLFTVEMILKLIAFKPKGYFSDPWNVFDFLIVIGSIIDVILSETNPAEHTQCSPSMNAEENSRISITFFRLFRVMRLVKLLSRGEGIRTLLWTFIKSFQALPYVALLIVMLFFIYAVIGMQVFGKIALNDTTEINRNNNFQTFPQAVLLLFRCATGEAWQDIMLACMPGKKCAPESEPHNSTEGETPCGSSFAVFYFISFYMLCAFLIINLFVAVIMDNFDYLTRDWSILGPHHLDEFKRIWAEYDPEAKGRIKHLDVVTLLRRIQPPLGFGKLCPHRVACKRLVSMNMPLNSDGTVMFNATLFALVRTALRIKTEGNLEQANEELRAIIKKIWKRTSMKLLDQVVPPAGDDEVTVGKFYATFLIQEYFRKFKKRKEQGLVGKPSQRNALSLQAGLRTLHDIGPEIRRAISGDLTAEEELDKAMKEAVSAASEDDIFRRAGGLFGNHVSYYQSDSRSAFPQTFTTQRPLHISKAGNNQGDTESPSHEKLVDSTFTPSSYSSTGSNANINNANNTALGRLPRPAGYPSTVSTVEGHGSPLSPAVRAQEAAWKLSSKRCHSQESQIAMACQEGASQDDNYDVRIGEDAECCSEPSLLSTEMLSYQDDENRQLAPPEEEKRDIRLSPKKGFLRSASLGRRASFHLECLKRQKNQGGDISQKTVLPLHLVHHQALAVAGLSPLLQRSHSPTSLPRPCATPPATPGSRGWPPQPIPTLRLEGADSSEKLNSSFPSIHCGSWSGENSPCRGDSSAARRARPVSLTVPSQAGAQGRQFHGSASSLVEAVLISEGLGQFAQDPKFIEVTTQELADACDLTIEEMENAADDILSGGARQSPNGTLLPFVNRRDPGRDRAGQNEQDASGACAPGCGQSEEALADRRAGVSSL
UniProt P13806, 27-960 partner limits assumed: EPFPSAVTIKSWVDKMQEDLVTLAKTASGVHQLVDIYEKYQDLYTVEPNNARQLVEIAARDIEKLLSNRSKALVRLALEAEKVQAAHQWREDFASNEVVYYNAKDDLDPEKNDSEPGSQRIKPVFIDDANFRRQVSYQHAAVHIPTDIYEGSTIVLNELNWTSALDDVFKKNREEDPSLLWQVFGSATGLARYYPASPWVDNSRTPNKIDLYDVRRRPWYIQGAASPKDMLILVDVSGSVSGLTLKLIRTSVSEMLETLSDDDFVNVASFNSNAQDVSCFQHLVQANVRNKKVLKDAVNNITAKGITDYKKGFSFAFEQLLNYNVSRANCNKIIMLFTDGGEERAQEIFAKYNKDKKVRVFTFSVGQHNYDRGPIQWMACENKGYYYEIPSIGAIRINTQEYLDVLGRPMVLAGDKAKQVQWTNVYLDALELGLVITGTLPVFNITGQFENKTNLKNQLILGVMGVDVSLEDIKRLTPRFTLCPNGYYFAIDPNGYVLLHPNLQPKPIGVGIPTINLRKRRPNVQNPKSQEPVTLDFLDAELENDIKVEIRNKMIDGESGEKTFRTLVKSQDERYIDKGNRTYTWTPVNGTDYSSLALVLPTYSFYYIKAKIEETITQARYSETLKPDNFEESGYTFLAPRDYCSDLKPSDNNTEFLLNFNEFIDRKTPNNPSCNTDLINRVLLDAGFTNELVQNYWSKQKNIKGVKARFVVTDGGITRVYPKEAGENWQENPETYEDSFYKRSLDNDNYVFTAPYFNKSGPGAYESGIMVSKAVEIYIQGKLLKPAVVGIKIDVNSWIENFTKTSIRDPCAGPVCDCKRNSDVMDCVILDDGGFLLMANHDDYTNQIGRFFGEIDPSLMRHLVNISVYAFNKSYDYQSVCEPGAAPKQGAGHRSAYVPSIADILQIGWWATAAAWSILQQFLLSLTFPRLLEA
UniProt P13806, 961-1106 partner limits assumed: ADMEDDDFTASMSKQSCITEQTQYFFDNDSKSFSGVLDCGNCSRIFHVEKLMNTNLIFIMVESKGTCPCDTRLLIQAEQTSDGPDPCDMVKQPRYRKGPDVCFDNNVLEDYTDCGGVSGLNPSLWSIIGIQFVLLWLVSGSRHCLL

Target: calcium channel (Oryctolagus cuniculus, UniProt P15381)
Experiment: Assay for Inhibition of Nitrendipine Binding (3H-nitrendipine, heart membranes)
Conditions: read-out: Nitrendipine Binding Assay IC50; 3H-nitrendipine displacement, rabbit heart membranes; Tables 6-7

SMILES | pIC50
CC1=C(C(=O)OCCOC(=O)c2ccc(C#N)cc2)C(c2c(F)cccc2Cl)C2=C(CS(=O)(=O)CCCS2(=O)=O)N1 (stereo not shown) | 7.31
COC(=O)c1ccc(COC(=O)C2=C(C)NC3=C(C2c2c(F)cccc2Cl)S(=O)(=O)CCS(=O)(=O)C3)cc1 (stereo not shown) | 7.32
CC1=C(C(=O)OCCOC(=O)Cc2ccc(N(C)C)cc2)C(c2c(F)cccc2Cl)C2=C(CS(=O)(=O)CCS2(=O)=O)N1 (stereo not shown) | 7.10
CC1=C(C(=O)OCCOC(=O)c2ccc(N(C)C)cc2)C(c2c(F)cccc2Cl)C2=C(CS(=O)(=O)CCS2(=O)=O)N1 (stereo not shown) | 6.93
